Data taken from US9527840B2, “Substituted-quinoxaline-type piperidine compounds and the uses thereof” (priority 2007, dated 2016).

The chains behind the UniProt entries cited, without tags or fusion partners.
UniProt P41146, whole entry: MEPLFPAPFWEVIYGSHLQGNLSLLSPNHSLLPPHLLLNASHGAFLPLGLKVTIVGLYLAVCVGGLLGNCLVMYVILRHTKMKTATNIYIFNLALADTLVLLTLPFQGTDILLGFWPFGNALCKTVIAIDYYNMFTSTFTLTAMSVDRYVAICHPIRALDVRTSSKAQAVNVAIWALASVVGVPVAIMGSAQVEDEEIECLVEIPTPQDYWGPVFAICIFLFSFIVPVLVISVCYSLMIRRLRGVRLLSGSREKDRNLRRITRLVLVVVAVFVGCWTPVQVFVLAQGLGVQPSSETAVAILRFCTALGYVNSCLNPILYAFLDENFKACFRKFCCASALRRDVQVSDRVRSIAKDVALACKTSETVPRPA

Target: human opioid receptor-like receptor (ORL-1) (Homo sapiens, UniProt P41146)
Assay: In vitro ORL-1 receptor binding assay ([3H]-nociceptin displacement)
Conditions: read-out: Ki [Average ± Std Deviation] ORL-1; membranes from recombinant HEK-293 cells

1-(4-(3-(hexahydropyrrolo[3,4-c]pyrrol-2(1H)-yl)-2-oxo-3,4-dihydroquinoxalin-1(2H)-yl)piperidin-1-yl)cyclooctanecarboxamide
Ki: 44.6 nM

Only a part of the results on these compounds is given; other tests are left out.
